What all share (format): biochemical
The target of assay [1] is T1, recombinant prolyl oligopeptidase (POP) (Homo sapiens, UniProt P48147).
T1 construct: purchased Sigma-Aldrich (Prague, Czech Republic)
T1 sequence (P48147 1-710): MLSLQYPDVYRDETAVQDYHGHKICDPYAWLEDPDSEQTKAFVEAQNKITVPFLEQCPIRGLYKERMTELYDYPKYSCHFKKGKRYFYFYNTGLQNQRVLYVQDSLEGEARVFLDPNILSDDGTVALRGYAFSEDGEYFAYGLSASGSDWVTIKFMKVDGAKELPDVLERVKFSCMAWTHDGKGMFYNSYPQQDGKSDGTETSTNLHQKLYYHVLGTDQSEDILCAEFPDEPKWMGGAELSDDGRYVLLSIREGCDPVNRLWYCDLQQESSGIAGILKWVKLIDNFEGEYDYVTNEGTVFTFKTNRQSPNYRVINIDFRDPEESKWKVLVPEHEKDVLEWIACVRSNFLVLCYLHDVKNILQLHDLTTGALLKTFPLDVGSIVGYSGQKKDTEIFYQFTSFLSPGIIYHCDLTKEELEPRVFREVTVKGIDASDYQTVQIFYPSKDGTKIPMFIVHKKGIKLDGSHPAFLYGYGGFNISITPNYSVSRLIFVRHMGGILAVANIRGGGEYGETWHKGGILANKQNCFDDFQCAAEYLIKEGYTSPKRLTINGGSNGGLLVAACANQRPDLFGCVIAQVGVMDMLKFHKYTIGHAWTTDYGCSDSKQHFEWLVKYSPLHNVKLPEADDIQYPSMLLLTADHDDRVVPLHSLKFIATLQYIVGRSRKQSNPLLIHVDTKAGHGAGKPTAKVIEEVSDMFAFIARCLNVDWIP
The experiment in a line: Prolyl oligopeptidase assay, substrate Z-Gly-Pro-p-nitroanilide. The conditions noted are these: read-out: POP (IC50), mean ± S.E.M. of three replications.

Amino acid sequences for entries named in this document (tags omitted). Residues count along the entry.
UniProt P06276, 29-602: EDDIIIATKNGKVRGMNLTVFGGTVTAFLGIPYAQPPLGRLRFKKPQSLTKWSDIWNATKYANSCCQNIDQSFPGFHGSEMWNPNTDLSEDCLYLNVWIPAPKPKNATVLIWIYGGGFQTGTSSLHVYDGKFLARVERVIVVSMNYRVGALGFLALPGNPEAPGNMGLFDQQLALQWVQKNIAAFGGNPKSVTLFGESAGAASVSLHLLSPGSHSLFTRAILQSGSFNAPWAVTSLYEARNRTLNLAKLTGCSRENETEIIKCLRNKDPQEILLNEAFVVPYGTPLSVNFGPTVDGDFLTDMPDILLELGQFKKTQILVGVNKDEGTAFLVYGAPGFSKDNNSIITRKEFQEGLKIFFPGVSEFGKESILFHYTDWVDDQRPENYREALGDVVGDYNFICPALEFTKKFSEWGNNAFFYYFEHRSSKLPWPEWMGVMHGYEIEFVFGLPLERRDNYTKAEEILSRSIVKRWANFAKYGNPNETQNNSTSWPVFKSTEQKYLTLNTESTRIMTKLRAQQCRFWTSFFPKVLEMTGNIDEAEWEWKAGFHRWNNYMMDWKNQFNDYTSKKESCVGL
UniProt P22303, 32-617 isoform P22303-2 limits assumed: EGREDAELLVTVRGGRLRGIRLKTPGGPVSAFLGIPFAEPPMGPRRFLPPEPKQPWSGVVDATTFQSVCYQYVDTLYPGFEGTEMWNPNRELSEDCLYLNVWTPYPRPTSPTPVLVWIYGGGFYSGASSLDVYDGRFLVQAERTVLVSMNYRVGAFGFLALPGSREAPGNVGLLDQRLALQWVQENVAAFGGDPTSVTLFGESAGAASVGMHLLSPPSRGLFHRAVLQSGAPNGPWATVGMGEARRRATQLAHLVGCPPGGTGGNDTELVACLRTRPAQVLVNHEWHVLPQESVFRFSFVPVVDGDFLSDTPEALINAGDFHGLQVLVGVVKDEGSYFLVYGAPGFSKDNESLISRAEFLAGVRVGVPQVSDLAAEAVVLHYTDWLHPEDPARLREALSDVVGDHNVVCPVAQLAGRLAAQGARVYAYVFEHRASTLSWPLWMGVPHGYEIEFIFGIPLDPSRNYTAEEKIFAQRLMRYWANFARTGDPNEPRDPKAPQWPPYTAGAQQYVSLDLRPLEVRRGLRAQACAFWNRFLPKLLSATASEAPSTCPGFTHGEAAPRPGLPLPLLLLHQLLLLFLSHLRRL

Assay [2] concerns the target human plasma butyrylcholinesterase (BChE) (Homo sapiens, UniProt P06276). The conditions noted are these: read-out: BChE (IC50).
Assay [3] has as its target T2, human blood acetylcholinesterase (AChE) (Homo sapiens, UniProt P22303).
T2 construct: Red blood cell lysate was used as a source of AChE and human plasma as a source of BChE; from tissue; host or cells: human erythrocytes (lysate) from freshly drawn blood of healthy volunteers
The experiment in a line: AChE inhibition, modified Ellman's method, red blood cell lysate. The conditions noted are these: read-out: AChE (IC50); erythrocyte lysate AChE; mean ± S.E.M. of three replications.

Usually IC50 stands for the midpoint of a concentration-inhibition curve. As to (+)-laudanosine [Compound 1], the IC50 was 341 ± 37.5 µM in assay [1] and more than 1000 µM in assay [2].

protopine [Compound 2]: the IC50 in assay [1] is more than 1000 µM; in assay [3], 230 ± 21 µM; in assay [2] it was 209 ± 17.7 µM.

For the origin of these results see article PMC6152004 (Molecules : A Journal of Synthetic Chemistry and Natural …, 2017).
